Data published in ChEMBL document CHEMBL5512615, “Targeting autophagy drug discovery: Targets, indications and development trends” (Eur J Med Chem, 2024).

By UniProt entry, the sequences of proteins in these tests, tags left out. Where a name states a change or a piece, a line headed by the entry shows the natural chain unless it says otherwise.
UniProt P48736: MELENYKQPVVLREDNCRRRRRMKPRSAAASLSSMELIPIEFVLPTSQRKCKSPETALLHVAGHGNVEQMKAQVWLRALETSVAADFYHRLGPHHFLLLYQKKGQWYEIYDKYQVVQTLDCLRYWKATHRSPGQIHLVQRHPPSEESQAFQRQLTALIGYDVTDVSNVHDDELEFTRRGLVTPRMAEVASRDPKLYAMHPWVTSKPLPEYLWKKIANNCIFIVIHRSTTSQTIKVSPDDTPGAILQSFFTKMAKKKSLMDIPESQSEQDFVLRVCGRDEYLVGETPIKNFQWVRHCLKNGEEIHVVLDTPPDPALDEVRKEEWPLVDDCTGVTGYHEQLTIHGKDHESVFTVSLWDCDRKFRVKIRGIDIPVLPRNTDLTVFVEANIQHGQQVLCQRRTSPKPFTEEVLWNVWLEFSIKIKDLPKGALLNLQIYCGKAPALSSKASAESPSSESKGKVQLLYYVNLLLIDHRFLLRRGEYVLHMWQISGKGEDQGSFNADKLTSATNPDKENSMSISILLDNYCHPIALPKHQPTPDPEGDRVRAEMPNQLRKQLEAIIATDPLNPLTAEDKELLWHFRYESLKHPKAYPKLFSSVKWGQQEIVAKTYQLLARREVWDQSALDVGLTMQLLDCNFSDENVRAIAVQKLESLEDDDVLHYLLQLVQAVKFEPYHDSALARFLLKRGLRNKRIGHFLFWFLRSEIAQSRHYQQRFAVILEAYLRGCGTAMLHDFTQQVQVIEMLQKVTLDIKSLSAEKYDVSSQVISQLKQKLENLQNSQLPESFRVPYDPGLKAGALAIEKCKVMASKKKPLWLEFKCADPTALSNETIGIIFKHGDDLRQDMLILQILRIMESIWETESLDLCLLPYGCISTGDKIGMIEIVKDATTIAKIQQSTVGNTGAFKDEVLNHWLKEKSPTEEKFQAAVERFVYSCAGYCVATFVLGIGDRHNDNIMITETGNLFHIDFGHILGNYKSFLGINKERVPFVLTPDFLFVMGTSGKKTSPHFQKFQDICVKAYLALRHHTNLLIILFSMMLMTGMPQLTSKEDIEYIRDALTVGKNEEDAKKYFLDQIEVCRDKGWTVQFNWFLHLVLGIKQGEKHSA
UniProt P42338: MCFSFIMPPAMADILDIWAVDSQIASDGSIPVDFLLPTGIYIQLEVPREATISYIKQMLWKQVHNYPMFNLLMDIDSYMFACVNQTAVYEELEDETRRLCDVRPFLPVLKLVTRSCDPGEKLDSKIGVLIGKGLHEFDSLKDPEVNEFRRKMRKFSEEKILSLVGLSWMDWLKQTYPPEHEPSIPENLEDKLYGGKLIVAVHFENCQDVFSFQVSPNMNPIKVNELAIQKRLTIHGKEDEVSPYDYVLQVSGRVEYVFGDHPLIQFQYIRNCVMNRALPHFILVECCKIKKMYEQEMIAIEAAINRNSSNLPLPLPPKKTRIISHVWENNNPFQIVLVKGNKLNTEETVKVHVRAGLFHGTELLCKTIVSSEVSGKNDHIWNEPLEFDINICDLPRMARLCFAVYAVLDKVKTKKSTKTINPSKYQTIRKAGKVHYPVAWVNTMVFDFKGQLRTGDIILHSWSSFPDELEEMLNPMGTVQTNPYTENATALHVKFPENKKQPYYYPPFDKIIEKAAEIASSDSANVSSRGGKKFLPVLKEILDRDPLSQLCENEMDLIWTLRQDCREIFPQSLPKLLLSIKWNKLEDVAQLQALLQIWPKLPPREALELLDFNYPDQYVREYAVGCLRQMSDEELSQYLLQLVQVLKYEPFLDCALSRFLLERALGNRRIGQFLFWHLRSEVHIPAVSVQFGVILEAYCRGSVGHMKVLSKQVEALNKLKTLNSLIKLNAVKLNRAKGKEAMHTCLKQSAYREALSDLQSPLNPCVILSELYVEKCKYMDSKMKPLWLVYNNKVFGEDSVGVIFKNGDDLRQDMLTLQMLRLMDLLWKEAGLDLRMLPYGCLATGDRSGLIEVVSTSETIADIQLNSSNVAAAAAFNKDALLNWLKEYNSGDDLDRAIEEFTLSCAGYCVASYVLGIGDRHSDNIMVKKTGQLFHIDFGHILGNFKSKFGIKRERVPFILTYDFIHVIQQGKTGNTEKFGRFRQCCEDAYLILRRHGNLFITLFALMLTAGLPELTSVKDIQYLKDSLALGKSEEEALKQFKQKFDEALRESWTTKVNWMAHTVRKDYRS

Columns and labels:
[1] = target: Phosphatidylinositol 4,5-bisphosphate 3-kinase catalytic subunit gamma isoform (Homo sapiens, UniProt P48736); experiment: Inhibition of PI3Kgamma (unknown origin)
[2] = target: Phosphatidylinositol 4,5-bisphosphate 3-kinase catalytic subunit beta isoform (Homo sapiens, UniProt P42338); experiment: Inhibition of PI3Kbeta (unknown origin)

IC50 [1]: 0.97 µM
IC50 [2]: 0.57 µM
Compound: O=c1cc(N2CCOCC2)oc2c(-c3ccccc3)cccc12 [LY-294002]
